## Measured affinities in a library of Ab-95 light chain variants

Target: peptide PDVDLGDISGINAS, taken from heptad repeat 2 (HR2) of SARS-CoV-2 spike.

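The starting antibody came from a phage panning campaign against this peptide. The library (AAYL52) carries one to three amino acid substitutions per variant, with no insertions or deletions. Affinity was read by AlphaSeq, a pooled yeast mating assay with surface-displayed partners. Mating (16 h, 30 °C) was followed by selection of diploids and sequencing of their barcodes. Each replicate has its own calibration line, from reference interactions of the BCL2 family. Mating was done three times.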

Parent scFv Ab-95: VH joined to VL by the linker GGGGSGGGGSGGGGS. Changes lie in the light chain CDRs alone.
VH: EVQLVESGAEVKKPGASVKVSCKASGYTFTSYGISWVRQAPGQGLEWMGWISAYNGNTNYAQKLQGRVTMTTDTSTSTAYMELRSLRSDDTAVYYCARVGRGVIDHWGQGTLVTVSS
VL: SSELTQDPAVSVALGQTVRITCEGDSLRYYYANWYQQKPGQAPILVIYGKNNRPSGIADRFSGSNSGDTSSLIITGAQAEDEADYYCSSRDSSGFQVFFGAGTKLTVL

Positions count from residue 1 of the parent VL; D25C puts C in place of D. All variants listed here change Y31 of the VL, counted from its first residue. Values are log10 of the apparent Kd in nM; lower means stronger binding. A mean of the replicates is given; it leaves out those without a signal. A pair that was not seen in that replicate is written "ND"; this usually means weak binding, but a binder can also be missed. For reference, the parent read 2.31 as the reference entry and 2.25 as a member of this library.

- D25C Y31E S88A = 2.58, 2.80, 2.54 (mean 2.64)
- Y31E G49L F95W = 4.63, ND, ND
- D25G Y31N P54N = 1.48, 1.49, 1.68 (mean 1.55)
- Y31K S92R V97L = 2.56, 2.55, 2.91 (mean 2.68)
- Y31E A32E S93V = ND, ND, ND
- Y31Q G49R S88T = ND, ND, ND
- R28M Y31E R53K = 2.11, 1.96, 1.28 (mean 1.78)
- Y31C G94D F98C = 2.99, 2.91, 4.10 (mean 3.33)
- D25E Y31K N51I = 2.91, 2.39, 2.32 (mean 2.54)
- S26Q Y31R S89I = 5.23, 3.24, 3.05 (mean 3.84)
- Y31A A32L V97P = 3.25, 3.01, ND (mean 3.13)
- Y31M N52Q P54S = 1.89, 1.72, 1.62 (mean 1.75)
- Y31S P54R S93M = 3.06, 3.11, 2.79 (mean 2.99)
- S26P Y31E N52M = 1.50, 1.61, 1.13 (mean 1.41)
- Y30N Y31I = 1.44, 1.29, 1.08 (mean 1.27)
- L27S Y31C R90L = 4.25, ND, ND
- Y31I S93P V97E = 3.43, 4.47, 4.72 (mean 4.21)
- Y31A R53A S55C = 2.56, 2.52, 2.21 (mean 2.43)
- Y31H N33P S93T = ND, ND, ND
- Y29A Y31D F95I = 1.85, 2.32, 2.52 (mean 2.23)
- Y31D G49S D91A = 1.79, 1.66, 1.40 (mean 1.61)
- Y31F N33H Q96V = 4.31, ND, ND
- E23D Y31I = ND, ND, ND
- Y31C F95S = 2.31, 2.17, 1.82 (mean 2.10)
- L27Q Y31D P54V = 2.75, 2.56, 2.78 (mean 2.70)
- Y31D S92K Q96A = 1.51, 1.13, 0.60 (mean 1.08)
- G24K Y31D A32T = 1.93, 1.78, 1.42 (mean 1.71)
- Y31S N51Q R90H = 3.23, 4.66, 4.42 (mean 4.10)
- S26Q Y31N K50I = 2.63, 3.13, 2.13 (mean 2.63)
- Y31Q N51M S93F = ND, 4.19, ND
- D25V Y30E Y31E = 1.46, 1.31, 1.08 (mean 1.28)
- Y31F N52P P54L = ND, ND, 3.41
- D25W Y31C V97I = ND, ND, 3.55
- Y31E A32I F98H = 2.39, ND, 1.91 (mean 2.15)
- Y29F Y31H S93N = 2.48, 2.48, 2.35 (mean 2.44)
- Y31K N52G R90D = ND, 4.12, 4.10 (mean 4.11)
- Y31W S92H G94Y = 3.51, 5.77, ND (mean 4.64)
- D25N Y31N R90C = ND, ND, ND
- Y31H S88N G94D = 1.61, 1.69, 1.27 (mean 1.52)
- R28V Y31D S92M = 1.81, 1.83, 1.44 (mean 1.69)
- Y31I N52L S89R = 3.15, ND, ND
- D25Y Y31A K50E = 1.18, 1.07, 0.68 (mean 0.98)
- Y31G N52I S88Q = 2.54, 1.83, 2.02 (mean 2.13)

Repeated from above, the 3 best binders with a signal in all replicates:

changes	replicates, log10 nM	mean, log10 nM
D25Y Y31A K50E	1.18, 1.07, 0.68	0.98
Y31D S92K Q96A	1.51, 1.13, 0.60	1.08
Y30N Y31I	1.44, 1.29, 1.08	1.27

Background: pairings of library AAYL52 with three empty control strains gave a value in 28% of cases (median 3.91, 5th percentile 2.90). Values in that range, when seen in few replicates, are hard to tell from nonspecific mating.

The measurements come from Engelhart et al. 2022 (doi:10.1038/s41597-022-01779-4) through the FLAb antibody collection.